Results taken from publication PMC7165421 (Proceedings of the National Academy of Sciences of the …, 2020).

Tested on: ARΔNTD binding to ARE/ETS DNA
Test: AR binding to ARE/ETS DNA in presence of unlabeled peptides
Parameters: species or system mouse
Conditions: unlabeled peptide in 4-molar excess to AR, no full-length ERG

QIQLWHFILELLRKEEY [ERF AIM]
effect on AR binding to DNA: repressed the ability of AR to bind DNA
